This assay deals with RET (Homo sapiens, UniProt P07949). As to the kind of experiment: Caliper Mobility Shift Assay, kinase inhibition. It is filed as biochemical. Particulars: read-out: Kinase inhibitory activity (IC50, nM) RET. As for the experimental part:
The semi-inhibitory concentration IC50 (the concentration of the compound required to inhibit the enzymatic activity to 50%) of a compound was measured by mixing a fixed enzyme with a specific substrate and the test compound of different concentrations. The test method used was Caliper Mobility Shift Assay, the kinases tested were VEGFR1, VEGFR2, VEGFR3, FLT3, PDGFRα, PDGFRβ, FGFR1, RET, EGFR and IGF1R, and the standard reference compound used was staurosporine.

Amino acid sequences for entries named in this document (tags omitted). Residues count along the entry.
UniProt P07949, 29-1114, species assumed: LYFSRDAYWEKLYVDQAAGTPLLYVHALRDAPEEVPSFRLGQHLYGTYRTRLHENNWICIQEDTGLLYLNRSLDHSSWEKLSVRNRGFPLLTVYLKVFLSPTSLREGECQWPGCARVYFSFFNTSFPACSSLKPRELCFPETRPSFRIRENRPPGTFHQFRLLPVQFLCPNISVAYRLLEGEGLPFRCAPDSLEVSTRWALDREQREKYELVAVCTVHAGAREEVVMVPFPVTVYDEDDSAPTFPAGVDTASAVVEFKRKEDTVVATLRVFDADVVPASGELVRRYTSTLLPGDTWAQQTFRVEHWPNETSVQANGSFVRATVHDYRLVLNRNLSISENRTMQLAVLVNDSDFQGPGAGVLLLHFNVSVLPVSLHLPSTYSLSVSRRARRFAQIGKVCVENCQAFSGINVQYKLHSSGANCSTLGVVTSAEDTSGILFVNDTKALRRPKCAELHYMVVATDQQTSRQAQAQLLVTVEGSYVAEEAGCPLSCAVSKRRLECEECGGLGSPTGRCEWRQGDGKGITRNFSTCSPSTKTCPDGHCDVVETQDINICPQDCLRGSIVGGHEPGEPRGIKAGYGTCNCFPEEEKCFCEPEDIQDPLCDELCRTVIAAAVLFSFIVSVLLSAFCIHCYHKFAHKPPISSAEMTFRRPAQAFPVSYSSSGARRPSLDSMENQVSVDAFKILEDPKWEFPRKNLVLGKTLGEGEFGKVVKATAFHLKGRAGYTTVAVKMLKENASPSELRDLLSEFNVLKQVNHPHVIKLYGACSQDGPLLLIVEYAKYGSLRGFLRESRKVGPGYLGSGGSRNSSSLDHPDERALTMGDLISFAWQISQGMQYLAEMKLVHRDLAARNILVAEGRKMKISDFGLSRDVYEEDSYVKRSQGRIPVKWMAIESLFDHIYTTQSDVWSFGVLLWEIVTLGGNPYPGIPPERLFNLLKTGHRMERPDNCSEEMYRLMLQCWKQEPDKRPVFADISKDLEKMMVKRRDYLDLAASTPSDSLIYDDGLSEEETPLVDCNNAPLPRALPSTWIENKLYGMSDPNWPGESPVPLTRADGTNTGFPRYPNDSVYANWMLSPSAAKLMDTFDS

The values below come from US10689361B2, “Quinoline derivative and use thereof” (priority 2016, dated 2020).

For orientation: IC50 means the concentration that gives 50% inhibition. For the molecule `CNC(=O)c1cc(Oc2ccc(NC(=O)Nc3ccc(Cl)c(C(F)(F)F)c3)c(F)c2)ccn1` [Regorafenib, regorafenib, reference compound], the IC50 worked out at 35 nM.
